Assay results reported in ChEMBL document CHEMBL1125513, “Substituted 1-(aminomethyl)-2-(arylacetyl)-1,2,3,4-tetrahydroisoquinolines: a novel class of very potent antinociceptive agents with varying degrees of selectivity for kappa and mu opioid receptors” (1992).

What was measured:
[1] = In vivo antinociceptive activity was determined using mouse tail-flick test following subcutaneous administration
[2] = In vivo antinociceptive activity was determined using mouse abdominal constriction test following subcutaneous administration; details: Abdomen
Mus musculus = assay: In vivo antinociceptive activity was determined using mouse hot plate test following subcutaneous administration

SMILES | ED50 [1] | ED50 [2] | ED50 (Mus musculus)
Cl.O=C(Cc1ccc(Cl)c(Cl)c1)N1CCc2c(O)cccc2C1CN1CCCC1 (stereo not drawn) | 0.015 µmol/kg | 0.005 µmol/kg | > 0.13 µmol/kg
CC1(C)Cc2ccccc2C(CN2CCCC2)N1C(=O)Cc1ccc(Cl)c(Cl)c1.Cl (stereo not drawn) | > 2.5 µmol/kg |  | 
O=C(Cc1ccc(Cl)c(Cl)c1)N1CCc2ccccc2C1CN1CCCC1 (stereo not drawn) | 0.02 µmol/kg | 0.017 µmol/kg | 
C[C@@H]1Cc2ccccc2[C@@H](CN2CCCC2)N1C(=O)Cc1ccc(Cl)c(Cl)c1.Cl | > 2.5 µmol/kg |  | 
O=C(Cc1ccc(Cl)c(Cl)c1)N1CCc2cc(O)ccc2C1CN1CCCC1 (stereo not drawn) | 0.59 µmol/kg |  | 
C[C@@H]1[C@@H](C)c2ccccc2[C@H](CN2CCCC2)N1C(=O)Cc1ccc(Cl)c(Cl)c1 | 0.112 µmol/kg | 0.025 µmol/kg | 
Cc1cccc2c1CCN(C(=O)Cc1ccc(Cl)c(Cl)c1)C2CN1CCCC1.Cl (stereo not drawn) | 0.827 µmol/kg | 0.395 µmol/kg | 
Cl.O=C(Cc1ccc(Cl)c(Cl)c1)N1CCc2c(F)cccc2C1CN1CCCC1 (stereo not drawn) | 0.265 µmol/kg | 0.123 µmol/kg | 
O=C(Cc1ccc(Cl)c(Cl)c1)N1CCc2ccc(O)cc2C1CN1CCCC1 (stereo not drawn) | > 2.5 µmol/kg |  | 
COc1cccc2c1CCN(C(=O)Cc1ccc(Cl)c(Cl)c1)C2CN1CCCC1 (stereo not drawn) | 0.125 µmol/kg | 0.108 µmol/kg | 
O=C(Cc1ccc(Cl)c(Cl)c1)N1CCc2c(O)cccc2C1CN1CCCC1 (stereo not drawn) | 0.022 µmol/kg | 0.012 µmol/kg | 
C[C@@H]1CN(C(=O)Cc2ccc(Cl)c(Cl)c2)[C@@H](CN2CCCC2)c2ccccc21 | 0.06 µmol/kg | 0.031 µmol/kg | 
C[C@H]1CN(C(=O)Cc2ccc(Cl)c(Cl)c2)[C@@H](CN2CCCC2)c2ccccc21.Cl | 1.1 µmol/kg | 0.676 µmol/kg | 
C[C@@H]1CN(C(=O)Cc2ccc(Cl)c(Cl)c2)[C@@H](CN2CCCC2)c2ccccc21.Cl | 0.11 µmol/kg | 0.086 µmol/kg | 
C[C@@H]1Cc2ccccc2[C@H](CN2CCCC2)N1C(=O)Cc1ccc(Cl)c(Cl)c1.Cl | 0.078 µmol/kg | 0.05 µmol/kg | 
Cl.O=C(Cc1ccc(Cl)c(Cl)c1)N1CCc2c(ccc(O)c2O)C1CN1CCCC1 (stereo not drawn) | 1.06 µmol/kg | 0.985 µmol/kg | 
Cl.O=C(Cc1ccc(Cl)c(Cl)c1)N1CCc2c(Cl)cccc2C1CN1CCCC1 (stereo not drawn) | 1.94 µmol/kg | > 0.457 µmol/kg | 
O=C(Cc1ccc(Cl)c(Cl)c1)N1CCc2cccc(O)c2C1CN1CCCC1 (stereo not drawn) | > 2.5 µmol/kg |  | 
C[C@@H]1Cc2ccccc2[C@H](CN2CCCC2)N1C(=O)Cc1ccc(Cl)c(Cl)c1 | 0.051 µmol/kg | 0.024 µmol/kg | 
CN(C(=O)Cc1ccc(Cl)c(Cl)c1)C1CCCCC1N1CCCC1 (stereo not drawn) |  | 1.16 µmol/kg | > 51.2 µmol/kg
CC1c2ccccc2C(CN2CCCC2)N(C(=O)Cc2ccc(Cl)c(Cl)c2)C1C.Cl (stereo not drawn) | > 2.5 µmol/kg |  | 
C[C@@H]1[C@@H](C)c2ccccc2[C@@H](CN2CCCC2)N1C(=O)Cc1ccc(Cl)c(Cl)c1 | > 2.5 µmol/kg |  | 
CSc1cccc2c1CCN(C(=O)Cc1ccc(Cl)c(Cl)c1)C2CN1CCCC1.Cl (stereo not drawn) | 0.795 µmol/kg | 0.449 µmol/kg | 
CC1(C)CN(C(=O)Cc2ccc(Cl)c(Cl)c2)C(CN2CCCC2)c2ccccc21.Cl (stereo not drawn) | 0.755 µmol/kg and 1.64 µmol/kg | 0.102 µmol/kg and 0.206 µmol/kg | > 7.5 µmol/kg

Values joined by “and” are separate entries in the source; they are usually repeats but may differ in a detail not shown here. Equal entries are not always repeated.
